Measurements as given in ChEMBL document CHEMBL5226286, “The application of isatin-based multicomponent-reactions in the quest for new bioactive and druglike molecules” (Eur J Med Chem, 2021).

Legend:
[1] = system: Proteus mirabilis; conditions: PTCC 1776
[2] = system: Staphylococcus epidermidis; conditions: PTCC 1435
[3] = system: Staphylococcus aureus
[4] = system: Escherichia coli

Measured: MIC

GENTAMICIN
0.5 µg/mL: [1] | [2] | [3] | [4]
